Drawing on patent US20070099244A1, this text covers IC50 for one substance.

Amino acid sequences for entries named in this document (tags omitted). Residues count along the entry.
UniProt P17301, 169-366: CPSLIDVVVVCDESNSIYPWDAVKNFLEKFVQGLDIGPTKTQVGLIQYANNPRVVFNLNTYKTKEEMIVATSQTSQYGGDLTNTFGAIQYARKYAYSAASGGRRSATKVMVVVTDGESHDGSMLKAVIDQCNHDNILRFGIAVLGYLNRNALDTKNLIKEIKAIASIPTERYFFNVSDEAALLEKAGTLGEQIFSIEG
UniProt P56199, 167-364: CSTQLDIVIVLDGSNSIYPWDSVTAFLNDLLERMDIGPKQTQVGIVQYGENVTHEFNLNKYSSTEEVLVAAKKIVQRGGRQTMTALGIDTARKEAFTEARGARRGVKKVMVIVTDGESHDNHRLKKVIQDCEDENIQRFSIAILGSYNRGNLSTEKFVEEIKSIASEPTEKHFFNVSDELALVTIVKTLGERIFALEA

Experiment [1] has as its target recombinant I domain of integrin α2 subunit (UniProt P17301). The experiment is described as follows: competition ELISA; peptide competes with coated human mature type III collagen for 5 µM α2I. For orientation: In an ELISA, binding on a coated surface is turned into a signal by an enzyme label.
Experiment [2] deals with recombinant I domain of integrin α1 subunit (UniProt P56199). Put plainly: competition ELISA; peptide competes with coated human mature type III collagen for 0.5 µM α1I.

Usually IC50 stands for the midpoint of a concentration-inhibition curve. With “synthetic collagen peptide containing GLOGER flanked by three GPO triplets on either side”, the figures for the IC50 in experiment [1] and in experiment [2] were 12 µM and 2.2 µM, respectively.
